{
  "source": "paper PMC5727259",
  "target": "Nav1.1 neuronal sodium channel (human) (UniProt P35498)",
  "test": "cross-linking; DSS (membrane permeable, noncleavable) on HEK293 cells expressing the channels, before lysis; different concentrations (50 or 100 μM for Nav1.1 and Nav1.2), 10 to 20 min; western blot; control DMSO without DSS",
  "data": [
    {"substance": "Nav1.1 neuronal sodium channel (from UniProt P35498 1-2009) (natural protein)", "values": [
      {"measurement": "stoichiometry N", "result": 2}
    ]}
  ]
}
